# Ab-91 heavy chain CDR variants: yeast mating affinities

Source: Engelhart et al. 2022 (doi:10.1038/s41597-022-01779-4), MIT Lincoln Laboratory and A-Alpha Bio; data file from the FLAb repository.

The target is the same throughout: PDVDLGDISGINAS, from the HR2 region of SARS-CoV-2 spike.

Parent: Ab-91, a human scFv built as VL, the linker GGGGSGGGGSGGGGS, VH. Only the CDRs of the heavy chain vary.
VL: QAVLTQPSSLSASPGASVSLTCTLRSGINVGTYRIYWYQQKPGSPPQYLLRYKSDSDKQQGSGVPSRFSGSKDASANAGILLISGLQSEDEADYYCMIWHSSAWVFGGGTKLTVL
VH: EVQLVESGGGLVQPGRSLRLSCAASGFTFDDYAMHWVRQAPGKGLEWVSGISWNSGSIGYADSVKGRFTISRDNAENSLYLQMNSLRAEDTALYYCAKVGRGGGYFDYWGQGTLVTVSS

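The starting antibody came from a phage panning campaign against this peptide. In library AAYL51, one, two or three CDR residues were substituted; doubles and triples were drawn at random. AlphaSeq pools MATa yeast showing the antibodies with MATalpha yeast showing the peptide. Mating (16 h, 30 °C) was followed by selection of diploids and sequencing of their barcodes. Read counts were normalised to the haploid input and turned into Kd by a linear fit to BCL2-family pairs of known affinity, for each replicate. There are three technical replicates.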

Each variant is given by its three heavy chain CDRs, as the data file delimits them; those of the parent are GFTFDDYAMH, GISWNSGSIGYADSVK, VGRGGGYFDY.
This list gathers variants with a substitution at Y32 (VH, numbered from residue 1).
Values are apparent Kd, the geometric mean of the replicates that gave a signal; lower means stronger binding.
"no signal" marks a missing value. The strain was present, yet no cells mated with the target were sequenced in any replicate, which points to weak or no binding.
Three control strains display no target. For library AAYL51, 21% of the pairings with them gave a signal, with a median of 34 µM and one signal in twenty below 1.8 µM, so weak values seen in few replicates may be background. The control count says in how many pairings with the empty strains this scFv gave a signal.

Variant GFTFDDHAMH / GISWNSGSSGYADSVK / VGRGGGYFDY showed 12 nM (3 of 3 replicates; controls 1 of 9). With GFTFEDMAMH / GISWNSGSIGYADSVK / VGRGGGYFDY the result was 35 nM (3 of 3 replicates; controls 4 of 9). Variant GFTFDDWAMH / GISWNSGSIGYVGSVK / VGRGGGYFDY showed no signal (0 of 3 replicates; controls 0 of 9). For GFMFDDNAMH / GISWNSGNIGYADSVK / VGRGGGYFDY, the assay gave 190 µM (3 of 3 replicates; controls 8 of 9). With GFTFDDPAMH / GISPNSESIGYADSVK / VGRGGGYFDY the result was 13 nM (3 of 3 replicates; controls 0 of 9). Variant GFTFDDLAMH / GTSWNSGSIGYHDSVK / VGRGGGYFDY showed no signal (0 of 3 replicates; controls 0 of 9).

For GFTFDDTAME / GISWNSGSIGYADSVK / VGRGGGYFLY, the assay gave 10 nM (3 of 3 replicates; controls 2 of 9). Variant GFTFDDWAMH / GISWESGSIGYADSVK / VIRGGGYFDY showed no signal (0 of 3 replicates; controls 0 of 9). With GFTFDEIAMH / GISWNSGSIGYADSVK / VGRGNGYFDY the result was 21 µM (1 of 3 replicates; controls 6 of 9). For GFTFDDVAMH / GISWNSGSIGYADSVT / VGRGGGYFPY, the assay gave 140 nM (3 of 3 replicates; controls 3 of 9). Variant GFTFDDAAMH / RISWNSGSIGYADSVK / VGRTGGYFDY showed no signal (0 of 3 replicates; controls 2 of 9). Variant GFTFDDGAMH / GISWNSGSIGYADSVK / LGRRGGYFDY gave no signal (0 of 3 replicates; controls 2 of 9).

Variant GFTFDDSAMH / GISWNSGSIGYADHVK / VGRGGGSFDY showed no signal (0 of 3 replicates; controls 0 of 9). With GFTFDDDAMH / GISWNSGSIGYADSAL / VGRGGGYFDY the result was no signal (0 of 3 replicates; controls 0 of 9). Variant GFTFDDMAAH / GISWNSGSMGYADSVK / VGRGGGYFDY gave no signal (0 of 3 replicates; controls 0 of 9). Variant GFTFDDSAMH / GISWNSGYIGYADSVK / VGRGGMYFDY gave 45 µM (3 of 3 replicates; controls 4 of 9). Variant GFTFDDLAMH / GISWNSLSIGYADSVK / VGRGGGYFMY gave 23 µM (1 of 3 replicates; controls 0 of 9). For GFTFDDKAMT / GISWFSGSIGYADSVK / VGRGGGYFDY, the assay gave 120 µM (1 of 3 replicates; controls 2 of 9).

For GFTFDDGAEH / GISWNSGSIGYADSVK / VGRGGGYFDY, the assay gave 210 µM (3 of 3 replicates; controls 6 of 9). For GFTFDDPAMH / GITWNYGSIGYADSVK / VGRGGGYFDY, the assay gave 13 µM (1 of 3 replicates; controls 4 of 9). Variant SFTFDDFAMH / QISWNSGSIGYADSVK / VGRGGGYFDY gave 240 µM (1 of 3 replicates; controls 2 of 9). With GFTFDDMAMH / GISWNSGSIGYALNVK / VGRGGGYFDY the result was 55 µM (2 of 3 replicates; controls 2 of 9). With GFTFDDWAMT / GISWNSGSIGYADSVK / VERGGGYFDY the result was 37 µM (2 of 3 replicates; controls 2 of 9). With GFTFDDKLMH / GISWNSGSIGYADSVK / VMRGGGYFDY the result was 110 µM (1 of 3 replicates; controls 2 of 9).

For GFTFDDNTMH / GISWNSGSIGYADSVK / VGRGGGYFDW, the assay gave 36 µM (1 of 3 replicates; controls 1 of 9). For GFTFDDVAMH / GIDWNSGSIGYADSVK / GGRGGGYFDY, the assay gave no signal (0 of 3 replicates; controls 1 of 9). For GFTFDDSAMH / GISWNSGSIGYATMVK / VGRGGGYFDY, the assay gave 10 µM (3 of 3 replicates; controls 7 of 9). Variant GFTFDDIADH / GISWNSGSIGYARSVK / VGRGGGYFDY showed no signal (0 of 3 replicates; controls 0 of 9). For GFTFDDLAMH / GIPWNSGSIGYADSVK / VGRGGGYFDY, the assay gave no signal (0 of 3 replicates; controls 0 of 9). Variant GFTFDDHAMH / GISWNSGSIGYADSVK / VGRGGGYFDY gave 18 nM (3 of 3 replicates; controls 4 of 9).

Variant GFQFDDVQMH / GISWNSGSIGYADSVK / VGRGGGYFDY showed no signal (0 of 3 replicates; controls 0 of 9). With GQTFDDFAMH / GISWNSGSIGYADSVK / VGRGGGYHDY the result was no signal (0 of 3 replicates; controls 1 of 9). Variant GFTFADLAMH / GISWNSGSTGYADSVK / VGRGGGYFDY showed no signal (0 of 3 replicates; controls 0 of 9). Variant GFTFDDKAMH / GISWNSGSIGYADSVK / VGRGGGYFDT showed 61 µM (1 of 3 replicates; controls 7 of 9). With GFTFDDIAMH / GISWNSGSIGYNPSVK / VGRGGGYFDY the result was no signal (0 of 3 replicates; controls 0 of 9). Variant GFTNDDLAMH / GISWNSGSIGPADSVK / VGRGGGYFDY gave no signal (0 of 3 replicates; controls 0 of 9).

With GFTFDDNAMH / GISWNSGHIGYADSVK / VGRGGGYPDY the result was 780 nM (3 of 3 replicates; controls 2 of 9). Variant LFTFDDSAMH / GISWNSGSIGYADSVK / VGRGGGYPDY showed no signal (0 of 3 replicates; controls 3 of 9). Variant GFTFDDLAMH / IISWNSGSIGYADSVK / VGRGGGYFDD gave 2.2 µM (1 of 3 replicates; controls 0 of 9). Variant GFTFDDNAMH / GISWHSGSIGYADSVK / VGRGGGYFDY showed 2.6 µM (2 of 3 replicates; controls 0 of 9). Variant GFTFDDQAMH / GISWNMGSIGYADSVK / VGRQGGYFDY showed no signal (0 of 3 replicates; controls 0 of 9). For GFTFDDRGMH / GISWNSGSIGYADSVK / VGRGGGYFDP, the assay gave 38 µM (3 of 3 replicates; controls 6 of 9).

For GFTFDDCAMH / GISWNSGSIGYADSVK / LGRGGGYFDY, the assay gave 3.2 µM (1 of 3 replicates; controls 1 of 9). With GFTFDDPAMH / PISWNSGSIGYADSVK / VGRGGNYFDY the result was 2.2 µM (1 of 3 replicates; controls 1 of 9). Variant GFTFDDTAMH / GIHWNSGSIGYADSVQ / VGRGGGYFDY showed no signal (0 of 3 replicates; controls 0 of 9). With GFTFDDNAMH / GGSWNSGSIGYADSNK / VGRGGGYFDY the result was 1.4 mM (1 of 3 replicates; controls 4 of 9). With GFTFDDFAMH / GISWNSGSIGYADSRK / VPRGGGYFDY the result was no signal (0 of 3 replicates; controls 3 of 9).

The closing 6 entries, repeated:

The variant GFTFDDRGMH / GISWNSGSIGYADSVK / VGRGGGYFDP showed 38 µM (3 of 3 replicates; controls 6 of 9).
The variant GFTFDDCAMH / GISWNSGSIGYADSVK / LGRGGGYFDY showed 3.2 µM (1 of 3 replicates; controls 1 of 9).
The variant GFTFDDPAMH / PISWNSGSIGYADSVK / VGRGGNYFDY showed 2.2 µM (1 of 3 replicates; controls 1 of 9).
The variant GFTFDDTAMH / GIHWNSGSIGYADSVQ / VGRGGGYFDY showed no signal (0 of 3 replicates; controls 0 of 9).
The variant GFTFDDNAMH / GGSWNSGSIGYADSNK / VGRGGGYFDY showed 1.4 mM (1 of 3 replicates; controls 4 of 9).
The variant GFTFDDFAMH / GISWNSGSIGYADSRK / VPRGGGYFDY showed no signal (0 of 3 replicates; controls 3 of 9).

In this assay the parent's reference entry averaged 72 nM; its copy inside this library read 7.5 nM.